# The list shows a part of the results, in another mix than the full data. Some structures show a salt or complex split into parts, the way the source records it. Activity calls are given as the source filed them. Rule as the data show it: active = activation above about 7.8%; inactive = the rest.
# Test: SMARCA2 (BRM) function activators, primary screen, cell-based, luminescence, high throughput (AID 652017);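 also: 0% = vehicle wells and 100% = reference activator wells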
# Details: MG213 cells, MMTV-luciferase reporter, dexamethasone, overnight; at 9.1 µM; hits give high values
row,Compound,activation
1,CCN(CC)CCCNc1ccccc1[N+](=O)[O-].O=[N+]([O-])c1cc([N+](=O)[O-])c(O)c([N+](=O)[O-])c1,inactive: -0.58%
2,COc1ccc(OP(C)(=O)Nc2ccc(SC(F)(F)F)cc2)cc1 (stereo not drawn),inactive: -2.83%
3,CCOC(=O)c1ccc(NP(C)(=O)Oc2ccc(F)cc2)cc1 (stereo not drawn),inactive: 3.73%
4,CCN(CC)CCCOC(=O)C(O)(c1ccccc1)C1CCCCC1 (stereo not drawn),inactive: -0.03%
5,Cc1c([N+](=O)[O-])cc([N+](=O)[O-])c(Br)c1[N+](=O)[O-],inactive: 2.09%
6,O=[N+]([O-])c1cc([N+](=O)[O-])c(OC2CCCCC2O)c([N+](=O)[O-])c1 (stereo not drawn),inactive: -2.71%
7,CCCCCOc1ccc(NP(C)(=O)Oc2ccc(Cl)cc2Cl)cc1 (stereo not drawn),inactive: -1.01%
8,CP(=O)(Nc1ccccc1)Oc1ccc(F)cc1 (stereo not drawn),inactive: -0.93%
9,O=[N+]([O-])c1cc([N+](=O)[O-])c(Nc2ccc(Cl)cc2)c([N+](=O)[O-])c1,inactive: -12%
10,CC(C)c1ccc(OP(C)(=O)Nc2ccc(SC(F)(F)F)cc2)cc1 (stereo not drawn),inactive: -4.77%
11,CP(=O)(Nc1ccccc1F)Oc1ccccc1 (stereo not drawn),inactive: -3.25%
12,O=C(OCCN1CCN(CCOCc2ccccc2)CC1)C(O)(c1ccccc1)c1ccccc1,inactive: 1.1%
13,O=C(OC1CN2CCC1CC2)c1ccc([N+](=O)[O-])cc1 (stereo not drawn),inactive: -2.99%
14,COc1ccc2c(c1O)-c1c(O)c(OC)cc3c1[C@H](C2)[N+](C)(C)CC3.O=[N+]([O-])c1cc([N+](=O)[O-])c([O-])c([N+](=O)[O-])c1[O-],inactive: 1.9%
15,CP(=O)(Nc1ccc(SC(F)(F)F)cc1)Oc1ccc(F)cc1 (stereo not drawn),inactive: -4.32%
16,CCOP(=O)(CC)OCC,inactive: -7.07%
17,CCOP(C)(=S)SCC(=O)NC(C)(CC)C(=O)O (stereo not drawn),inactive: -3.45%
18,CP(=O)(Nc1ccc2c(c1)OCCO2)Oc1ccccc1 (stereo not drawn),inactive: 0.72%
19,O=[N+]([O-])c1cc([N+](=O)[O-])c(C(F)(F)F)c([N+](=O)[O-])c1O,inactive: -2.85%
20,Cc1ccccc1NP(C)(=O)Nc1ccccc1C,inactive: 2.12%
21,COc1ccc(OP(C)(=O)Nc2cccc(Br)c2)cc1 (stereo not drawn),inactive: -1.17%
22,COc1ccc(NP(C)(=O)Oc2ccccc2OC)cc1 (stereo not drawn),inactive: 1.13%
23,CN(C)CCOC(=O)C(O)(c1ccccc1)C1CCCCC1 (stereo not drawn),inactive: -7%
24,O=[N+]([O-])c1cc([N+](=O)[O-])c(NCC2CCS(=O)(=O)C2)c([N+](=O)[O-])c1 (stereo not drawn),inactive: 5.66%
25,Cc1cc(-c2cccc3ccccc23)c(C)cn1.O=[N+]([O-])c1cc([N+](=O)[O-])c(O)c([N+](=O)[O-])c1,inactive: 3.34%

row,Compound,activation
1,O=[N+]([O-])c1ccc(OP2(=O)COCCO2)cc1 (stereo not drawn),inactive: -1.48%
2,Cc1c(C(c2ccc3c(c2)OCO3)c2c(C)n(C)n(-c3ccccc3)c2=O)c(=O)n(-c2ccccc2)n1C.O=[N+]([O-])c1cc([N+](=O)[O-])c(O)c([N+](=O)[O-])c1,inactive: -2.47%
3,Nc1ccc2c(ccc3cccnc32)n1.O=[N+]([O-])c1cc([N+](=O)[O-])c(O)c([N+](=O)[O-])c1,inactive: 3.78%
4,CP(=O)(OC12CC3CC(CC(C3)C1)C2)OC12CC3CC(CC(C3)C1)C2,inactive: -3.58%
5,CCOC(=O)c1ccc(NP(C)(=O)Oc2ccc(Cl)cc2)cc1 (stereo not drawn),inactive: -1.75%
6,COc1ccc(OP(C)(=O)Nc2ccc(Br)cc2)cc1 (stereo not drawn),inactive: 2.16%
7,CCN(CC)CC(O)COC(=O)C(O)(c1ccccc1)C1CCCCC1 (stereo not drawn),inactive: 1.19%
8,CCc1ccc(OP(C)(=O)Nc2cccnc2)cc1 (stereo not drawn),inactive: -2.94%
9,CP(=O)(Oc1ccccc1)N1CCOC1=O (stereo not drawn),inactive: -0.08%
10,O=C(OCCCN1CCCC1)C(O)(c1ccccc1)C1CCCCC1 (stereo not drawn),inactive: -3.3%
11,COc1ccccc1OP(C)(=O)Nc1c(C)n(C)n(-c2ccccc2)c1=O (stereo not drawn),inactive: -1.56%
12,CP(=O)(Nc1ccc(Cl)cc1)Oc1ccc(F)cc1 (stereo not drawn),inactive: -1.84%
13,CC(C)(C)c1ccc(OP(C)(=O)O)cc1,inactive: 0.58%
14,COc1ccccc1OP(C)(=O)Nc1ccccc1Br (stereo not drawn),inactive: -0.11%
15,CN(C)C(=O)c1c([N+](=O)[O-])cc([N+](=O)[O-])cc1[N+](=O)[O-],active: 8.31%
16,COc1ccccc1OP(C)(=O)Nc1ccc(Br)cc1 (stereo not drawn),inactive: 0.52%
17,CN(C)CCOC(=O)C(O)(c1ccccc1)C1CCCC1 (stereo not drawn),inactive: 2.1%
18,COc1ccc(OP(C)(=O)Nc2ccccn2)cc1 (stereo not drawn),inactive: -1.98%
19,O=[N+]([O-])c1cc([N+](=O)[O-])c(Nc2ccccn2)c([N+](=O)[O-])c1,inactive: -2.36%
20,Cc1c(NP(C)(=O)Oc2ccc(C(C)C)cc2)c(=O)n(-c2ccccc2)n1C (stereo not drawn),inactive: 0.4%
21,CCc1ccc(OP(C)(=O)O)cc1,inactive: 1.41%
22,COc1ccccc1OP(C)(=O)Nc1ccc(C)cc1C (stereo not drawn),inactive: -2.47%
23,CP(=O)(Nc1ccccn1)Oc1ccccc1 (stereo not drawn),inactive: 0.34%
24,Cc1cc(C)cc(OP(C)(=O)Nc2cccc(C(F)(F)F)c2)c1 (stereo not drawn),inactive: 0.1%
25,O=C1C(O)=C([N+](=O)[O-])C(=O)C(O)=C1[N+](=O)[O-],inactive: -3.34%

row,Compound,activation
1,COc1ccc(OP(C)(=O)Nc2ccccc2Br)cc1 (stereo not drawn),inactive: -0.75%
2,COc1ccccc1OP(C)(=O)Nc1ccc(C)c(C)c1 (stereo not drawn),inactive: 0.22%
3,CP(=O)(OCCOc1ccccc1)OCCOc1ccccc1,inactive: -4.26%
4,CP(=O)(Nc1ccc(Cl)cc1Cl)Oc1ccccc1 (stereo not drawn),inactive: -2.53%
5,CCCCCCCCCCCCCCCC1C[N+](C)(C)CCOP(C)(=O)O1 (stereo not drawn),inactive: -2.4%
6,O=[N+]([O-])c1cc([N+](=O)[O-])c(Nc2cccnc2)c([N+](=O)[O-])c1,inactive: -1.25%
7,Cc1cccc(C)c1OP(C)(N)=O (stereo not drawn),inactive: -1.16%
8,CC(C)(C)c1ccc(OP(C)(=O)Nc2ccc(SC(F)(F)F)cc2)cc1 (stereo not drawn),inactive: -1.49%
9,O=[N+]([O-])c1ccc2c(c1)C=Nc1ccccc1O2,inactive: 0.78%
10,CCOC(=O)c1ccc(NP(C)(=O)Oc2ccccc2)cc1 (stereo not drawn),inactive: -3.09%
11,Cc1ccc(NP(C)(=O)Oc2ccccc2)c(C)c1 (stereo not drawn),inactive: -2.28%
12,COc1ccccc1OP(C)(=O)Nc1ccc(C)cc1 (stereo not drawn),inactive: -2.96%
13,COc1ccc(OP(C)(=O)Nc2cccc(F)c2)cc1 (stereo not drawn),inactive: -0.95%
14,COc1ccccc1OP(C)(=O)Nc1cc(Cl)ccc1C (stereo not drawn),inactive: 1.59%
15,Cc1cc(C)cc(OP(C)(N)=O)c1 (stereo not drawn),inactive: -3.05%
16,CCN(CC)CCCOC(=O)C(O)(c1ccccc1)c1ccccc1,inactive: -2.61%
17,COc1ccccc1-c1ccccn1.O=[N+]([O-])c1cc([N+](=O)[O-])c(O)c([N+](=O)[O-])c1,inactive: 0.95%
18,CP(=O)(Oc1ccccc1)OC(c1ccccc1)C(F)(F)F (stereo not drawn),inactive: -2.19%
19,CP(=O)(Nc1ccc(SC(F)(F)F)cc1)Oc1ccc(Cl)cc1 (stereo not drawn),inactive: -6.76%
20,Cc1cccc(C)c1OP(C)(=O)Nc1ccc(SC(F)(F)F)cc1 (stereo not drawn),inactive: 1.84%
21,Cc1cc(C)cc(OP(C)(=O)Nc2ccc(SC(F)(F)F)cc2)c1 (stereo not drawn),inactive: -1.66%
22,CCc1ccc(OP(C)(=O)N2CCN(c3ccc([N+](=O)[O-])cc3)CC2)cc1 (stereo not drawn),inactive: -5.07%
23,CP(=O)(NC(=O)Nc1ccccc1)Oc1ccccc1 (stereo not drawn),inactive: 0.7%
24,CCOP(C)(=S)SCC(=O)NC(C)C(=O)O (stereo not drawn),inactive: 1.15%
25,O=[N+]([O-])c1cc([N+](=O)[O-])c(O)c([N+](=O)[O-])c1.c1ccc(Oc2ccncc2)cc1,inactive: -0.18%

row,Compound,activation
1,CCOC(=O)c1ccc(NP(C)(=O)Oc2ccc(OC)cc2)cc1 (stereo not drawn),inactive: -2.11%
2,CP(=O)(Nc1ccccn1)Oc1ccc(Cl)cc1 (stereo not drawn),inactive: -1.53%
3,CP(=S)(Nn1cnnc1)Oc1ccccc1 (stereo not drawn),inactive: 2.31%
4,COc1ccccc1OP(C)(=O)Nc1ccccc1 (stereo not drawn),inactive: 3.16%
5,CCOC(=O)C(CC)C1=NC(C)(C)Cc2ccccc21.O=[N+]([O-])c1cc([N+](=O)[O-])c(O)c([N+](=O)[O-])c1 (stereo not drawn),inactive: 0.63%
6,O=[N+]([O-])c1cc([N+](=O)[O-])c(Nc2nnnn2CCO)c([N+](=O)[O-])c1,inactive: -1.51%
7,CN1CCCCC1COC(=O)C1(O)c2ccccc2CCc2ccccc21 (stereo not drawn),inactive: -2.91%
8,COc1ccccc1OP(C)(=O)Nc1c(C)cccc1C (stereo not drawn),inactive: 1.08%
9,CP(=O)(Nc1ccc(SC(F)(F)F)cc1)Oc1ccccc1 (stereo not drawn),inactive: -2.24%
10,CCCOc1ccc(NP(C)(=O)Oc2ccc(Cl)cc2)cc1 (stereo not drawn),inactive: 4.03%
11,COc1ccc(-c2ccccn2)cc1.O=[N+]([O-])c1cc([N+](=O)[O-])c(O)c([N+](=O)[O-])c1,inactive: -2.69%
12,O=[N+]([O-])c1cc([N+](=O)[O-])c(-n2nnc3ccccc32)c([N+](=O)[O-])c1,inactive: -5.04%
13,CN(Cc1cccnc1)C(=O)COc1ccc(Cl)c(Cl)c1.O=[N+]([O-])c1cc([N+](=O)[O-])c(O)c([N+](=O)[O-])c1,inactive: -4.16%
14,O=[N+]([O-])c1cc([N+](=O)[O-])c(-c2cnn(-c3ccccc3)c2)c([N+](=O)[O-])c1,inactive: -3.15%
15,Cc1nc2ccc3ccccc3c2s1.O=[N+]([O-])c1cc([N+](=O)[O-])c(O)c([N+](=O)[O-])c1,inactive: -4.75%
16,COc1ccccc1OP(C)(=O)Nc1cccc(Br)c1 (stereo not drawn),inactive: -1.37%
17,Cc1cc(C)cc(OP(C)(=O)Nc2ccc(C)cc2C)c1 (stereo not drawn),inactive: 3.94%
18,CCOC(=O)c1ccc(NP(C)(=O)Oc2cc(C)cc(C)c2)cc1 (stereo not drawn),inactive: 0.67%
19,CP(=O)(Nc1cccc(Br)c1)Oc1ccccc1 (stereo not drawn),inactive: 1.62%
20,Cc1cc(C)cc(OP(C)(=O)Nc2ccccn2)c1 (stereo not drawn),inactive: -0.45%
21,Cc1ccc(C)c(NP(C)(=O)Oc2ccccc2)c1 (stereo not drawn),inactive: -1.89%
22,O=C(O)c1cccc(Nc2c([N+](=O)[O-])cc([N+](=O)[O-])cc2[N+](=O)[O-])c1,active: 9.58%
23,CC1=NCCc2c1[nH]c1ccccc21.O=[N+]([O-])c1cc([N+](=O)[O-])c(O)c([N+](=O)[O-])c1,inactive: -1.86%
